Anesthetic bind – candidate novel general anesthetic via apoferritin binding; P02791; apoferritin/1-aminoanthracene competitive binding, fluorescence; Potency, µM (highest dose often 77.5 µM), for the others: at the top dose activity change, negative = displacement, most hits filed as inhibitors; actives 0.074% (n = 350,000); AID 485281; also: potency is read from the fitted curve at half-maximal effect; % is scaled to controls: 0 for no effect and ±100 for the full control effect; nearly all actives have a fitted effect of over 20% in size
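In PBS, apoferritin at 10 uM is loaded with 1-AMA from a 50% saturated solution. After 10 min of compound exposure at ambient temperature, reduced 535 nm fluorescence indicates probe displacement.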
TrxR1 inh – rat TrxR1 inhibition; O89049; recombinant rTrxR1, NADPH fluorescence consumption, selenite substrate; Potency, µM (doses to about 114 µM), for inactives: at the top dose activity change, negative = inhibition, hits mostly inhibitors; actives 1% (n = 390,000); AID 588453; also: potency is read from the fitted curve at half-maximal effect; % is scaled to controls: 0 for no effect and ±100 for the full control effect; nearly all actives have a fitted effect of over 65% in size
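Rat TrxR1 (90 nM in the dispensed reagent) was pre-reduced with 400 uM NADPH for 5 min at room temperature, then incubated with compound for 15 min. After 400 uM selenite was added, NADPH fluorescence (Ex 340/Em 450 nm) was followed for 8 min.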
miR-21 reporter – raises the signal of a miR-21 reporter; AID 2288; 340,000 tested, under 10 active; Potency, µM (doses to about 38.3 µM), inactives show at the top dose reporter change, positive = more light; HeLa miR-21 FLuc reporter, luciferase, 48 h; active = well fitted rising curve with a large enough effect; inconclusive = small, poorly fitted or top-dose-only effect; inactive = no such curve, though single readings can be large or run the other way;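 note: % of control where 0% means no effect; miR-21 action dims this reporter so a rising signal means less miR-21 action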
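Compounds were titrated across several concentrations (up to approximately 40 uM) and incubated 48 hours with HeLa miR-21-FLuc reporter cells (miR-21 target sequence downstream of FLuc, endogenous miR-21). Readout was firefly luciferase luminescence after lytic detection reagent.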
TrxR1 substrate – is turned over as a substrate by rat TrxR1; purified TrxR1 substrate turnover, NADPH consumption readout; Potency, µM (top dose mostly 114 µM), without a hit: at the highest dose activity change, negative = substrate turnover; actives 0.01% (n = 390,000); also: potency is read from the fitted curve at half-maximal effect; % is scaled to controls: 0 for no effect and ±100 for the full control effect; nearly all actives have a fitted effect of over 50% in size
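Rat TrxR1, dispensed at 90 nM, was prereduced with 400 uM NADPH (final) for 5 min at ~22 deg C, then incubated with compound 15 min before 400 uM selenite. A first-read NADPH fluorescence drop versus no-compound background flagged substrates.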
ClpP mod – qHTS Assay for Activators of ClpP; ATP-dependent Clp protease proteolytic subunit (Bacillus subtilis (strain 168)), P80244; purified B. subtilis ClpP, FRET peptide cleavage, 20 min; Potency, µM (highest dose often 57.5 µM), inactives show at the top dose activity change, negative = active; actives 1.9% (n = 340,000); AID 651965, 2013; active = well fitted falling curve with a large enough effect; inconclusive = small, poorly fitted or top-dose-only effect; inactive = no such curve, though single readings can be large or run the other way; also: potency is read from the fitted curve at half-maximal effect; the source files actives as falling curves though it sought activators and does not explain the sign; nearly all actives have a fitted effect of over 65% in size
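Purified B. subtilis ClpP, 10 microg/mL final in Tris/HCl pH8 with KCl, BSA, glycerol and Tween-20, cleaved an Abz/nitrotyrosine-quenched decapeptide. Fluorescence (ex 320, em 430) was read at 0 and 20 min at room temperature. Delta was normalized to 5.8 microM ADEP and DMSO/no-enzyme controls.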
* marks the source's active call; other numbers are inactive results; i = inactive; ? = inconclusive; · = no result; [ ] = remark or other dose. Compounds with a hit are over-represented: about 2.5% of the library has one in this group of screens. Unless noted, calls follow the shape of the dose curve; as a rule, active = well fitted curve in the direction sought with a large enough effect; inconclusive = small, poorly fitted or top-dose-only effect, or another doubt; inactive = no such curve, though single readings can be large; an effect the other way counts as inactive or inconclusive.

By UniProt entry, the sequences of proteins in these tests, tags left out.
ATP-dependent Clp protease proteolytic subunit (Bacillus subtilis (strain 168)), P80244, UniProt P80244, whole entry, looked up: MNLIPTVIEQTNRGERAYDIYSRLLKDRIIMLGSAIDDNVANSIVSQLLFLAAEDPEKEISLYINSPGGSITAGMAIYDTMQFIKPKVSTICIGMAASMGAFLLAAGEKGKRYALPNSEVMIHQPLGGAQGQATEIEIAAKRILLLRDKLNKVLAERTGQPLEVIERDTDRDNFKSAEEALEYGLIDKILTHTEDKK

Order of results – Anesthetic bind, TrxR1 inh, miR-21 reporter, TrxR1 substrate, ClpP mod
(1) CC(C)(C)OC(=O)N[C@@H](Cc1ccccc1)c1nnc(SCC(N)=O)o1
  -9.1%, 21.3%, -1.4%, -1.7%, -0.4%
(2) COC(=O)CS(=O)(=O)c1nnc([C@H](Cc2ccccc2)NC(=O)OC(C)(C)C)o1
  -16.8%, 1.26µM*, ?, 1.3%, -1.8%
(3) CCOC(=O)C1CCCN(C(=O)c2ccc3c(c2)sc2nc(-c4cccc(OC)c4)cn23)C1 (stereo not drawn)
  1.8%, -12.0%, -7.8%, -5.7%, -22.3%
(4) Cc1c(CC(=O)NCc2ccc(F)cc2)c(=O)oc2cc(O)c(Cl)cc12
  i, 79.4µM*, -1.9%, 892.8%, 4.3%
(5) COc1ccc2c(C)c(CC(=O)N3CCN(C(=O)C4COc5ccccc5O4)CC3)c(=O)oc2c1C (stereo not drawn)
  -0.5%, 12.4%[57.1 µM], -1.1%, 131.7%[57.1 µM], 3.9%
(6) O=C(C1COc2ccccc2O1)N1CCOCC1 (stereo not drawn)
  -16.1%, 18.8%, -2.2%, 12.6%, 15.8µM*
(7) O=C(C1COc2ccccc2O1)N1CCN(c2ccccc2)CC1 (stereo not drawn)
  -20.0%, -15.1%, -12.8%, -4.9%, -2.5%
(8) COc1ccc(S(=O)(=O)N2CCN(C(=O)C3COc4ccccc4O3)CC2)cc1 (stereo not drawn)
  ·, 50.1µM*, ·, -3.5%, -0.3%
(9) Cc1c(CC(=O)N2CCN(C(=O)C3COc4ccccc4O3)CC2)c(=O)oc2cc(O)c(Cl)cc12 (stereo not drawn)
  998.5%, 31.6µM*, -3.0%, 939.2%, 4.2%
(10) Cc1cc(C)c2oc(-c3cccc(NC(=O)c4ccc(-c5cccc([N+](=O)[O-])c5)o4)c3)nc2c1
  5.7%, 31.4%, -12.6%, 8.1%, -2.4%
(11) O=C(CSc1nc2c([nH]c3ccccc32)c(=O)n1-c1ccccc1)N1CCCC1
  2.8%, 26.7%[57.1 µM], -2.3%, 1.6%[57.1 µM], -5.5%
(12) CCCCCn1c(CCCNC(=O)c2cccc(C)c2)nc2ccccc21
  27.8%, 7.8%, 21.5%, 2.3%, -7.1%
(13) O=C(CCl)N1CCN(C(=O)C2COc3ccccc3O2)CC1 (stereo not drawn)
  ·, 28.2µM*, ·, 4.5%, ·
(14) CCN1CCN(C(=O)C2COc3ccccc3O2)CC1 (stereo not drawn)
  -1.2%, ?, -4.2%, -4.8%, -3.4%
(15) Cc1ccc(-c2ccc(C(=O)NCc3ccc(Cl)cc3)o2)c2ccccc12
  ?, 31.6µM*, -2.4%, 11.6%, 3.7%
(16) COc1ccc(CNC(=O)c2cccc(-c3ccc(C)c4ccccc34)n2)cc1
  -5.0%, 33.9%[57.1 µM], 3.9%, 8.8%[57.1 µM], 25.1µM*
(17) COc1ccc(CNC(=O)c2ccccc2C(=O)O)cc1
  2.5%, -12.5%, -10.6%, -9.4%, 1.2%
(18) CCOC(=O)Cn1c(=O)n(C2CCCCC2)c2nc(-c3ccc(C(C)C)cc3)nc(C(N)=O)c21
  -6.4%, 16.4%[57.1 µM], -0.8%, 12.0%[57.1 µM], -14.2%
(19) COc1ccc(CNC(=O)c2cc3c(-c4ccccc4F)nn(C)c3s2)cc1
  25.8%, 19.6%, 13.0%, 6.1%, 4.2%
(20) COc1ccc(N(C)C(=O)CCC(=O)Nc2ccc3nc(N4CCOCC4)cc(C)c3c2)c(OC)c1
  -4.5%, 5.1%, -10.4%, 123.1%, 28.2µM*
(21) CCCCN(C)C(=O)CCC(=O)Nc1ccc2nc(N3CCOCC3)cc(C)c2c1
  -5.8%, 9.2%, -22.5%, 163.0%, 7.94µM*
(22) COc1cc(NC(=O)CCC(=O)Nc2ccc3nc(N4CCOCC4)cc(C)c3c2)cc(OC)c1OC
  -1.0%, 4.0%[57.1 µM], -5.3%, 134.7%, 25.1µM*
(23) CCOC(CCNC(=O)CCC(=O)Nc1ccc2nc(N3CCN(C)CC3)cc(C)c2c1)OCC
  -3.7%, 7.4%, -2.9%, 49.2%, ·
(24) COc1ccc(NC(=O)CCC(=O)Nc2ccc3nc(N4CCOCC4)cc(C)c3c2)c(OC)c1
  -3.4%, 58.0%, -11.8%, 57.7%, ·
(25) CCOc1ccccc1NC(=O)CCC(=O)Nc1ccc2nc(N3CCN(C)CC3)cc(C)c2c1
  -8.1%, -21.6%, -9.1%, 40.9%, 25.1µM*
(26) CCC(C)NC(=O)CCC(=O)Nc1ccc2nc(N3CCOCC3)cc(C)c2c1 (stereo not drawn)
  5.9%, -9.4%[11.4 µM], -34.3%, 77.3%[57.1 µM], ?
(27) COc1ccc(CNC(=O)Cn2c(SCC(=O)N(C)c3ccccc3)nc3ccccc32)cc1
  45.2%, 9.6%[57.1 µM], 4.6%, -2.4%[57.1 µM], 1.9%
(28) CCN1C(=O)c2ccccc2Sc2ccc(NC(=O)Nc3cccc([N+](=O)[O-])c3C)cc21
  39.5%, 13.3%[57.1 µM], 0.9%, -4.8%[57.1 µM], -3.1%
(29) CCc1ccc(NC(=O)N2CCN(c3nnc(C)c4c(C)n(-c5ccc(Cl)cc5)nc34)CC2)cc1
  53.3%, 10.2%[57.1 µM], -4.4%, 0.1%[57.1 µM], -28.4%
(30) COc1cc(OC)c(OC)cc1/C=C/c1nccc2ccccc12
  ·, -24.7%, ·, -7.6%, -0.8%
(31) Cc1cc(N2CCOCC2)nc2ccc(NC(=O)CCC(=O)N3CCC(C)CC3)cc12
  -1.8%, -19.1%, -36.5%, 135.8%, 28.2µM*
(32) Cc1cc(N2CCC(C)CC2)nc2ccc(NC(=O)CCC(=O)N3CCN(c4ccccc4F)CC3)cc12
  348.7%, 22.2%, 16.7%, 40.1%, 3.9%
(33) Cc1cccc(C(=O)NC2CCN(C(=O)NCc3ccccc3)CC2)c1
  5.2%, 25.1µM*, -0.4%, 0.5%[57.1 µM], ·
(34) COc1ccc(CCNC(=O)/C=C/c2ccco2)cc1
  -7.3%, 35.5µM*, -11.0%, 1.2%, -1.2%
(35) COc1ccc(CCNC(=O)/C=C/c2ccco2)cc1OC
  -12.1%, 7.94µM*, -4.0%, 8.4%[57.1 µM], -1.1%
(36) CCOc1ccc(CCNC(=O)/C=C/c2ccco2)cc1OCC
  -10.8%, 20µM*, -7.7%, 4.6%, -0.2%
(37) COc1ccc(/C=C/C(=O)NCCc2ccc(S(N)(=O)=O)cc2)cc1
  -5.3%, 8.1%, -9.2%, 1.0%, -2.2%
(38) COc1ccc(CCNC(=O)/C=C\c2ccccc2)cc1OC
  -1.4%, -7.6%, -27.4%, -10.6%, -3.4%
(39) COc1ccc(/C=N/NC(=O)CNC(=O)/C=C/c2ccco2)cc1OC
  -17.1%, 31.6µM*, -8.1%, 1.7%, -7.4%
(40) CCC(C)NC(=O)c1cc2n(n1)CCCN(Cc1ccc(C)cc1)C2=O (stereo not drawn)
  -6.4%, 16.9%[57.1 µM], 11.5%, 3.1%[57.1 µM], -9.4%

Quoted from the listing:
`Cc1cc(N2CCOCC2)nc2ccc(NC(=O)CCC(=O)N3CCC(C)CC3)cc12` in TrxR1 substrate → 135.8%
`CCOC(CCNC(=O)CCC(=O)Nc1ccc2nc(N3CCN(C)CC3)cc(C)c2c1)OCC` in Anesthetic bind → -3.7%
`COc1cc(NC(=O)CCC(=O)Nc2ccc3nc(N4CCOCC4)cc(C)c3c2)cc(OC)c1OC` in TrxR1 substrate → 134.7%
`COc1ccc(NC(=O)CCC(=O)Nc2ccc3nc(N4CCOCC4)cc(C)c3c2)c(OC)c1` in Anesthetic bind → -3.4%

New compounds follow
#	Structure	Anesthetic bind	TrxR1 inh	miR-21 reporter	TrxR1 substrate	ClpP mod
41	O=C(O)c1ccc2c3c(ncnc13)-c1ccccc1C2=O	-14.3%	10µM*	-8.7%	-13.1%	1.0%
42	Cc1ccc(-n2nc3c(N4CCC(C(=O)NCCC(C)C)CC4)nnc(C)c3c2C)cc1	50.3%	-6.5%	-0.5%	-4.5%	-8.4%
43	Cc1ccc(S(=O)(=O)N2CCCCC2)cc1NC(=O)Cn1ncc(Cl)c(Cl)c1=O	·	50.1µM*	·	9.2%	1.5%
44	COc1ccc(NC(=O)Cn2ncc(Cl)c(Cl)c2=O)cc1S(=O)(=O)N1CCOCC1	-6.2%	28.2µM*	?	-3.0%	-7.4%
45	CC1=C(C(=O)Nc2ccc(C)c(C)c2)C2(CCCCCC2)OC1=O	-6.0%	0.7%	-6.4%	4.5%	6.6%

An excerpt of these results, with each value named.
[31] Cc1cc(N2CCOCC2)nc2ccc(NC(=O)CCC(=O)N3CCC(C)CC3)cc12
  Anesthetic bind: -1.8%; TrxR1 inh: -19.1%; miR-21 reporter: -36.5%; TrxR1 substrate: 135.8%; ClpP mod: 28.2µM*

[32] Cc1cc(N2CCC(C)CC2)nc2ccc(NC(=O)CCC(=O)N3CCN(c4ccccc4F)CC3)cc12
  Anesthetic bind: 348.7%; TrxR1 inh: 22.2%; miR-21 reporter: 16.7%; TrxR1 substrate: 40.1%; ClpP mod: 3.9%

High-throughput results as filed in PubChem.
